Biological target: human APJ receptor (Homo sapiens (Human), UniProt P35414)
Test: Intracellular cAMP accumulation assay (APJ hcAMP, HTRF)
Format: cell-based
Conditions: read-out: Human APJ cAMP EC50 Potency range
Method: Intracellular cAMP Accumulation Assay
HEK293 cells stably expressing human APJ receptor were used to assess the activity of compounds. Cultured cells were detached and resuspended in the cAMP Homogeneous Time-Resolved Fluorescence (HTRF) assay buffer (Cisbio cat; #62AM4PEJ). The assay was performed in 384-well assay plates (Perkin-Elmer; cat #6008289) according to assay protocol provided by the manufacturer. Serial dilutions of a compound together with assay buffer containing […] and 2 μM forskolin were added to each well containing 5,000 cells and incubated for 30 minutes at room temperature. Subsequently, cAMP D2 reagent was added in the lysis buffer followed by the EuK antibody (Cisbio; cat #62AM4PEJ) and incubated for 60 min. The fluorescence emission ratio was measured using fluorometer. The intracellular cAMP concentrations (compound-stimulated inhibition of forskolin-mediated cAMP production) were calculated by extrapolation from a standard curve using known cAMP concentrations. The EC50 values were obtained by fitting the data to a sigmoidal concentration-response curve with variable slope. […]
The biological activity of the exemplified compounds of this invention determined by the assay described above is shown at the end of each example.

Amino acid sequences for entries named in this document (tags omitted). A change or cut given only in a name is not applied to a line headed by its entry.
UniProt P35414: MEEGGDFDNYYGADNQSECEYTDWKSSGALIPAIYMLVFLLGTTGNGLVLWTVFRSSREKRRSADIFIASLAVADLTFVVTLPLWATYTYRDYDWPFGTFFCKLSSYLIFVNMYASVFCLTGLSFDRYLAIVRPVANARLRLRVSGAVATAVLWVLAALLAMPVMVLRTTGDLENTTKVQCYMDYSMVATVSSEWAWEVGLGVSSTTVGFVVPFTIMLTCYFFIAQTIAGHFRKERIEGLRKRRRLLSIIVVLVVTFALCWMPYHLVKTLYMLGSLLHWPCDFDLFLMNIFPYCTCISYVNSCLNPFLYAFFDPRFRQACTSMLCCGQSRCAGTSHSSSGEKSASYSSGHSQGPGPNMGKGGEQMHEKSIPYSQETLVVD

- EC50: 0.01 to 10 nM
Structure (SMILES): COc1cccc(OC)c1-n1c(CCC(C)C)nc(=O)c(S(=O)(=O)c2ccc(-c3ccc(F)nc3)cc2)c1O [Example 13, 1-(2,6-dimethoxyphenyl)-5-[4-(6-fluoropyridin-3-yl)benzenesulfonyl]-6-hydroxy-2-(3-methylbutyl)-1,4-dihydropyrimidin-4-one]
